Target: T1, human PD-L1 (Homo sapiens, UniProt Q9NZQ7)
T1 construct: biotin (biotinylated); purchased R&D Systems (Minneapolis, Minnesota)
Experiment: Bio-layer interferometry binding to biotinylated PD-L1
Details: read-out: dissociation constant KD
Source text: Binding of the computationally designed PD-L1ip3 peptide to PD-L1 was verified using a FortéBio BLItz machine (Freemont, CA, USA). The PD-L1ip3 peptide and its scrambled analogue were synthesized by GenScript (Piscataway, NJ) with no modifications or labels. Biotinylated human PD-L1 and untagged PD-1 (a positive control) were purchased from R&D Systems (Minneapolis, Minnesota). For each experiment, the BLItz machine was fitted with a fresh streptavidin biosensor tip (FortéBio). All tips were solvated in PBS buffer for 15-30 min before the experiments. The peptide was solvated at a concentration of approximately 1 mg/ml. The precise concentration of this stock solution (0.922 mg/ml) was obtained using the Pierce BCA Protein Assay Kit (Thermo Fisher Scientific) and multiple dilutions were made (corresponding to […]). A solution of biotinylated PD-L1 was applied to the biosensor tip during the loading phase of each experiment. PBS buffer (ix) was used for the baseline. The scrambled-sequence peptide, PD-L1ip3SC, served as the negative control and PD-1, the natural binding partner of PD-L1, was the positive control.

By UniProt entry, the sequences of proteins in these tests, tags left out. Residues count along the entry.
UniProt Q9NZQ7, 19-290: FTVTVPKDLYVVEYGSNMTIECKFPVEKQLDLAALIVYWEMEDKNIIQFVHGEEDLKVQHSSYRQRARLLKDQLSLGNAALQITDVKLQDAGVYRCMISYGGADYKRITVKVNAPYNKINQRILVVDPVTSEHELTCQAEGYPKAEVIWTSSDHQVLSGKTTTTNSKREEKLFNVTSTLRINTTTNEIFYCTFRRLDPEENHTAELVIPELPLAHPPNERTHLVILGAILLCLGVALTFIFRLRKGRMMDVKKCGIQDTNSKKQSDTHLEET

Substance: PD-1: untagged PD-1, the natural binding partner of PD-L1, positive control
- Kd: ~8 µM

Reference: patent US20250066420A1, “PD-L1 INHIBITORY PEPTIDE FOR CANCER IMMUNOTHERAPY” (Kansas State University Research Foundation, priority 2021, published 2025)
